{"source": "paper PMC4574934", "about": "“Gliadin Induces Neutrophil Migration via Engagement of the Formyl Peptide Receptor, FPR1” (PLoS ONE, 2015)", "key": {"human neutrophils": {"tested_on": "human neutrophils", "experiment": "EZ-TAXIScan chemotaxis assay, human neutrophils", "type": "cell-based", "design": "key to Chemotactic response: moderate (++) response; stronger chemotactic response (+++)", "procedure": "Heparinized venous blood was centrifuged over a Ficoll-Paque PLUS gradient (d = 1.077 g/ml, GE Healthcare, Boston, MA). The sedimented granulocyte/erythrocyte fraction was collected, and erythrocytes were lysed with cold lysis buffer (155 mM NH4Cl, 10 mM KHCO3, 0.1 mM EDTA). Cells were resuspended in HBSS without Ca^2+/Mg^2+ (Thermo Scientific, Tewksbury, MA), and viability and purity were assessed as described above. Viability of neutrophils was >95%, purity was 98–99%.\nNeutrophils were counted and applied in the EZ-TAXIScan chemotaxis assay. […] The EZ-TAXIScan chamber (Effector Cell Institute, Tokyo) was assembled as described by the manufacturer. Cell migration was recorded every 15 seconds for 30 minutes at 37°C in a humidified environmental chamber. Coverslips and chips used in the chamber were coated with 1% BSA at room temperature for 1 hour. All glass coverslips were ultrasonicated and washed before use. Cell migration analysis was conducted with MATLAB software. Cell tracks were subsequently used to compute the chemotaxis index (CI) and speed for each tracked cell at each time step, as well as the average CI and average speed for each experiment."}, "[1]": {"molecular_target": "T1, human FPR1 (FPR1-transfected HEK293T cells) (Homo sapiens, UniProt P21462)", "T1 construct": "Origene cDNA ORF Clone, OriGene Technologies, Rockville, MD; host or cells: HEK293T", "T1 sequence (P21462 1-350)": "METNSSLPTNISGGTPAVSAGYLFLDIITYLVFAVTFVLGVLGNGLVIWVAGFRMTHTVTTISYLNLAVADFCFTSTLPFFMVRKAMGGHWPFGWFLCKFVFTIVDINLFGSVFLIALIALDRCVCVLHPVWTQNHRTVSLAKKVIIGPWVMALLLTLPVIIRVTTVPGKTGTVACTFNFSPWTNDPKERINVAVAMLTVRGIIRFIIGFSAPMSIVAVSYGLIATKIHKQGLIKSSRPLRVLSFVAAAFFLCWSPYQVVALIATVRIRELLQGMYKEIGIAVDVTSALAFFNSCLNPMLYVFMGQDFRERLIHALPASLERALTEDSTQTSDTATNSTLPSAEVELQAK", "experiment": "FPR1 kinetic (saturation) binding by flow cytometry", "details": "FITC-labeled ligand; binding expressed as mean fluorescence intensity (MFI); 3-5 independent experiments", "procedure": "(§1) HEK293T cells were transfected with human FPR1 according to the manufacturer’s protocol (Origene cDNA ORF Clone, OriGene Technologies, Rockville, MD). […] Binding kinetics were evaluated by flow cytometric analysis. Specificity of binding of the synthetic gliadin peptide to FPR1 was assessed with the use of FPR1-transfected HEK293T cells. […] Binding was determined by flow cytometry and expressed as mean fluorescence intensity (MFI). The specific binding was calculated as MFIFPR1—MFImock."}, "[2]": {"molecular_target": "T1, human FPR1 (FPR1-transfected HEK293T cells)", "experiment": "FPR1 competitive binding assay by flow cytometry", "details": "FITC-labeled fMet-Leu-Phe at 100 nM; unlabeled gliadin peptide 1 nM to 500 μM", "procedure": "as §1"}, "[3]": {"details": "Table 2, peptide 20 ng/mL, 1-3 experiments"}, "[4]": {"details": "Table 3, in the presence of cyclosporine H (FPR1 inhibitor), 2-3 experiments"}, "[5]": {"details": "Table 3, no cyclosporine H, 2-3 experiments"}}, "note": "Entries after “also recorded” stand apart in the source; their conditions may differ."}
{"smiles": "CC[C@H](C)[C@H](NC(=O)[C@@H](NC(=O)[C@H](CS)NC(=O)[C@H](Cc1ccc(O)cc1)NC(=O)[C@@H]1CCCN1C(=O)[C@@H]1CCCN1C(=O)[C@@H](NC(=O)[C@H](Cc1ccc(O)cc1)NC(=O)[C@@H](NC(=O)[C@H](CC(N)=O)NC(=O)[C@H](CS)NC(=O)[C@H](CCSC)NC(=O)[C@H](C)NC(=O)[C@@H]1CCCN1C(=O)[C@H](CC(C)C)NC(=O)[C@@H](N)[C@@H](C)O)C(C)C)[C@@H](C)CC)[C@@H](C)O)C(=O)N[C@H](C(=O)N1CCC[C@H]1C(=O)N[C@@H](Cc1ccccc1)C(=O)NCC(=O)O)C(C)C", "values": [{"measurement": "Chemotactic response", "setting": "human neutrophils; [3]", "value": "+++"}, {"measurement": "Chemotaxis Index (CI)", "setting": "human neutrophils; [3]", "value": "0.42 ± 0.08"}, {"measurement": "Speed", "setting": "human neutrophils; [3]", "value": "6.94 ± 0.16", "unit": "μm/minute"}, {"measurement": "Chemotaxis Index (CI), Cyclosporine H", "setting": "human neutrophils; [4]", "value": "0.03 ± 0.01"}, {"measurement": "Speed, Cyclosporine H", "setting": "human neutrophils; [4]", "value": "0.34 ± 0.04", "unit": "μm/minute"}, {"measurement": "Chemotaxis Index (CI), Control", "setting": "human neutrophils; [5]", "value": "0.33 ± 0.04"}, {"measurement": "Speed, Control", "setting": "human neutrophils; [5]", "value": "6.33 ± 1.10", "unit": "μm/minute"}, {"measurement": "Bmax", "setting": "[1]", "value": 922.4}, {"measurement": "displacement of fMet-Leu-Phe from FPR1-transfected HEK293T cells", "setting": "[2]", "value": "could not compete away; also recorded: not capable of displacement"}]}
